Consider nine compounds from PubChem BioAssay AID602 (SRMLSC, 2007).

This is a selection; strong and weak results do not stand in their true shares. The source made the active and inactive calls.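 Rule for the calls: active = viability drop by adding the cancer drug above about 55%, with treated viability meeting a 40% cutoff (limit read from the data); inactive = the rest, inconclusive results apart.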

This assay in a line: MRP1 drug-resistance reversers in H69AR cells – cell-based, doxorubicin co-treatment, primary screen (AID 602).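 Note: viability without doxorubicin minus viability with 2 µM doxorubicin for each compound; larger differential means the compound sensitizes cells more to doxorubicin.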 The note with it: H69AR cells + 2 uM doxorubicin, CellTiter-Glo, 72 h; at 10 µM; active compounds read high. On the technique in general: Cellular ATP, detected with luciferase, serves as a proxy for viable cell number.
With `c1ccc(CN2CCC(Nc3ccccc3)CC2)cc1`, the differential viability (reversal) is inactive: 16.3%. To `N/C(=N\O)c1c(N)no[n+]1[O-]` belongs inactive: 4.81%; to `CCC(CO)(C(=O)OC1CN2CCC1CC2)c1ccccc1` (centres undefined), inactive: -0.32%; to `CCOc1ncccc1C(=O)NCC1(N2CCOCC2)CCCCC1`, inactive: 7.59%. The figure for `Fc1ccccc1NC1CCN(Cc2ccccc2)CC1` is inactive: 2.13%; for `O=C(OC1CN2CCC1CC2)C1c2ccccc2Oc2ccccc21` (centres undefined) it is inactive: 4.39%; for `O=C(NCC1(N2CCOCC2)CCCCC1)c1cc2ccccc2o1` it is inactive: -0.43%. As for `O=C(NCC1(N2CCOCC2)CCCCC1)c1cc(=O)[nH]c2ccccc12`, the differential viability (reversal) is inactive: 0.35%. The figure for `N#CC1(Nc2ccccc2)CCN(CCc2ccccc2)CC1` is inactive: 7.48%.
